This experiment concerns the target Extracellular region of FcγRIIIa (residues 19-193, V158 allotype) (UniProt P08637). Description: SPR.

Protein sequences, listed by entry. Tags and fused reporters are not part of them. Lines headed by an entry give the natural chain unless they say otherwise; changes in a name come on top.
UniProt P08637: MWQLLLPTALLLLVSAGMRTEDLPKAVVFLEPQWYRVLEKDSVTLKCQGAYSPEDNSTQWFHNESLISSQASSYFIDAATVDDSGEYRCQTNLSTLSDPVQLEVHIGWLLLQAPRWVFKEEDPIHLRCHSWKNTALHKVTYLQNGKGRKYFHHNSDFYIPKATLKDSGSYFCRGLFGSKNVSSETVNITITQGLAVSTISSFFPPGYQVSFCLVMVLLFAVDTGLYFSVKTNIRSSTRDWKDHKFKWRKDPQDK

Usually Kd stands for the concentration at which binding is half-saturated. High values mean lower affinity, low ones higher affinity. In the case of “(1)GlcNAc-Fc wt (human IgG1 Fc with a single GlcNAc residue attached at N297) (domain or fragment)”, the Kd turned out to be 5 µM.

Source of the values: PMC4558368.
